# Apparent affinities of Ab-14 variants for a coronavirus HR2 peptide

Antigen: PDVDLGDISGINAS, a 14-residue peptide of the SARS-CoV-2 spike HR2 region.

Each scFv is VH, three GGGGS repeats, VL, as in the parent Ab-14, and differs from it in the CDRs of the light chain only.
VH: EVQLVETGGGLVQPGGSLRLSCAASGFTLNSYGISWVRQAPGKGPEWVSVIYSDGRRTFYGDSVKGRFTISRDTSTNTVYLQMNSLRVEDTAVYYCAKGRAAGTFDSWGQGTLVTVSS
VL: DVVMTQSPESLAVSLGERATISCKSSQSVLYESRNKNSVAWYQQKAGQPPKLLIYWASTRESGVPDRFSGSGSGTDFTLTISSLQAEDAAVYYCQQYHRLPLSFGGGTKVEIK

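The starting antibody came from a phage panning campaign against this peptide. In library AAYL50, one, two or three CDR residues were substituted; doubles and triples were drawn at random. The assay is AlphaSeq: two haploid yeast populations carry antibody and antigen on their surface. The frequency of each diploid, read from paired DNA barcodes, reflects how well the two displayed proteins bind. A regression on co-assayed BCL2-family reference pairs converts the normalised counts of each replicate to an apparent Kd. Mating was done three times.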

Substitutions are numbered in sequence along the VL above, starting at 1 (not Kabat). This list gathers variants with a substitution at P101 (VL, numbered from residue 1). Kd is apparent (estimated from mating counts) and averaged on the log scale over replicates with a signal. Smaller is tighter. "nd" means that the variant was in the library but no mating with the target was seen in any replicate; the authors take this as a sign of poor binding, and no number exists. Nonspecific signal, from three strains lacking the peptide, appeared in 18% of pairings of library AAYL50, centred on 15 µM (5% of these signals below 970 nM); values are not corrected for it. Also given: how often the same scFv was detected with the empty control strains.

changes	Kd	seen in	signal with controls
R99T+L100D+P101Q	nd	0 of 3	3 of 9
A40V+A57P+P101T	60 µM	1 of 3	7 of 9
S38V+W56M+P101G	nd	0 of 3	0 of 9
H98W+P101N	3.1 µM	1 of 3	0 of 9
S62R+L100F+P101A	1.7 µM	1 of 3	1 of 9
L30D+T59Q+P101F	nd	0 of 3	0 of 9
R99G+P101L+L102P	7.5 nM	3 of 3	1 of 9
R60Y+P101S+S103E	nd	0 of 3	1 of 9
N37I+P101M	2.8 nM	3 of 3	1 of 9
P101Y	nd	0 of 3	0 of 9
W56C+Q95F+P101M	14 µM	3 of 3	4 of 9
E32D+A40Y+P101F	nd	0 of 3	0 of 9
V29I+E32C+P101G	nd	0 of 3	1 of 9
L30I+Y31H+P101Y	7.4 µM	1 of 3	1 of 9
S26M+L100R+P101Q	110 nM	3 of 3	2 of 9
V29P+Y97H+P101K	54 nM	3 of 3	4 of 9
E32R+S62G+P101G	6.7 µM	2 of 3	4 of 9
K36D+Y97H+P101L	130 µM	1 of 3	0 of 9
K24T+S62R+P101Q	nd	0 of 3	1 of 9
S26C+S62M+P101T	nd	0 of 3	0 of 9
S58M+Q95L+P101W	1.2 mM	3 of 3	4 of 9
V39T+E61S+P101Q	nd	0 of 3	3 of 9
V39L+R99N+P101C	34 nM	3 of 3	1 of 9
S25H+R34L+P101Q	610 µM	2 of 3	6 of 9
T59R+P101D+S103I	800 µM	1 of 3	3 of 9
K36T+L100R+P101T	nd	0 of 3	1 of 9
R34Y+A40Y+P101K	130 µM	1 of 3	1 of 9
R60T+Q96C+P101A	17 µM	3 of 3	7 of 9
S33M+A40V+P101S	nd	0 of 3	0 of 9
Q27A+Q95P+P101F	330 nM	3 of 3	3 of 9
K36C+P101M+L102T	nd	0 of 3	3 of 9
K36S+S58W+P101C	2.7 µM	1 of 3	2 of 9
W56F+T59L+P101D	1.1 µM	3 of 3	0 of 9
S58M+E61W+P101Q	32 µM	2 of 3	3 of 9
S26P+A40F+P101M	nd	0 of 3	6 of 9
S25R+Q96T+P101L	20 µM	2 of 3	1 of 9
V29H+Q95R+P101C	nd	0 of 3	0 of 9
S26N+A57F+P101Y	110 µM	1 of 3	2 of 9
V29W+E61R+P101Q	30 µM	2 of 3	1 of 9
R34Q+A57N+P101I	9.6 µM	1 of 3	3 of 9
S62Q+P101V	11 nM	3 of 3	0 of 9
V39K+W56Y+P101M	nd	0 of 3	2 of 9
W56K+P101T+L102D	4.0 µM	1 of 3	1 of 9
S62H+Y97I+P101Q	nd	0 of 3	0 of 9
Q27T+L30W+P101C	nd	0 of 3	0 of 9
T59N+P101T+L102N	30 µM	1 of 3	4 of 9
S26E+S38Q+P101H	41 nM	3 of 3	3 of 9
A40R+R99P+P101R	200 µM	3 of 3	4 of 9
S62W+R99S+P101M	1.5 µM	2 of 3	1 of 9
S28N+S62F+P101L	26 µM	2 of 3	4 of 9
V39N+P101C	nd	0 of 3	0 of 9
K24G+V29I+P101C	nd	0 of 3	0 of 9
S58G+E61H+P101S	130 µM	2 of 3	2 of 9
S25N+V29H+P101A	43 nM	3 of 3	0 of 9
Q27K+L30I+P101L	27 µM	1 of 3	2 of 9
T59S+S62D+P101C	1.4 µM	1 of 3	4 of 9
K36R+W56P+P101D	nd	0 of 3	2 of 9
V29P+A57H+P101N	13 µM	2 of 3	1 of 9
A57I+Y97C+P101Y	41 µM	1 of 3	2 of 9
V29T+P101N	nd	0 of 3	0 of 9
V29R+L30P+P101V	1.5 µM	2 of 3	3 of 9
K36A+V39R+P101W	nd	0 of 3	2 of 9
Y97G+H98G+P101S	910 nM	2 of 3	2 of 9

The 7 strongest on average among those seen in every replicate, once more:

| changes | Kd | seen in | signal with controls |
|---|---|---|---|
| N37I+P101M | 2.8 nM | 3 of 3 | 1 of 9 |
| R99G+P101L+L102P | 7.5 nM | 3 of 3 | 1 of 9 |
| S62Q+P101V | 11 nM | 3 of 3 | 0 of 9 |
| V39L+R99N+P101C | 34 nM | 3 of 3 | 1 of 9 |
| S26E+S38Q+P101H | 41 nM | 3 of 3 | 3 of 9 |
| S25N+V29H+P101A | 43 nM | 3 of 3 | 0 of 9 |
| V29P+Y97H+P101K | 54 nM | 3 of 3 | 4 of 9 |

In this assay the parent's reference entry averaged 4.4 nM; its copy inside this library read 48 nM.

The measurements come from Engelhart et al. 2022 (doi:10.1038/s41597-022-01779-4) through the FLAb antibody collection.